# Assays:
# Amino acid sequences for entries named in this document (tags omitted). Residues count along the entry.
# UniProt P47871, 26-477: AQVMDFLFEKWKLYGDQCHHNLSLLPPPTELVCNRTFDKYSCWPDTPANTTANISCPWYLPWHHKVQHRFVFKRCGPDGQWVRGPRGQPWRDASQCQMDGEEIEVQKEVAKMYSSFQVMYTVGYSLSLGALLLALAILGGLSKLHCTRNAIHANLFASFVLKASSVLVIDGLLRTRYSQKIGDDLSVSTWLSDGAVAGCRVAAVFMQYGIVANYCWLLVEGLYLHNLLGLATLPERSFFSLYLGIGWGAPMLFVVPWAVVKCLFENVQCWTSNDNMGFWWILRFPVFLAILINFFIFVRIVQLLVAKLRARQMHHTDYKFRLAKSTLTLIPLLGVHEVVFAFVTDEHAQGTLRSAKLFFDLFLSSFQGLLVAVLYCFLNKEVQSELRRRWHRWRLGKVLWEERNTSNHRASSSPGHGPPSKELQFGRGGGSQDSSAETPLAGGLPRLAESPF
# UniProt P43220, 24-463: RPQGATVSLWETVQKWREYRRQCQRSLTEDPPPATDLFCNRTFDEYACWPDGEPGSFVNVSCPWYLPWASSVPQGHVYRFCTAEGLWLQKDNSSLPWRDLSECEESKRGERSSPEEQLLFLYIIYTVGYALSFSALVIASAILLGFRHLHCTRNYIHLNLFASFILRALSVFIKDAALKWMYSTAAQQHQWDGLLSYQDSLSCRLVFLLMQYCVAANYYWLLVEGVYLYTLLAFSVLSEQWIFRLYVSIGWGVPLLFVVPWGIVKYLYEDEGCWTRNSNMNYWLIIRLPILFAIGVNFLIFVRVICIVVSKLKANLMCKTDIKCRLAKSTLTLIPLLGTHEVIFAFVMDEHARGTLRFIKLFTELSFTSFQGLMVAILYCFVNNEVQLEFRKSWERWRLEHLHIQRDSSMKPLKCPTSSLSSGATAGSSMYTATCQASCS
# human glucagon receptor = target: T1, human glucagon receptor (Homo sapiens, UniProt P47871); test: cAMP response (HTRF) of HEK-293 cells stably expressing human glucagon receptor; assay type: cell-based; conditions: Table 5; cAMP, HEK-293; read-out: EC50 hGlucagon-R
# T1 construct: expressed in transfected cells; host or cells: HEK-293
# human GLP-1 receptor = target: T2, human GLP-1 receptor (Homo sapiens, UniProt P43220); test: cAMP response (HTRF) of HEK-293 cells stably expressing human GLP-1 receptor; assay type: cell-based; conditions: Table 5; cAMP, HEK-293; read-out: EC50 hGLP-1R
# T2 construct: expressed in transfected cells; host or cells: HEK-293
Compound,EC50 (human glucagon receptor),EC50 (human GLP-1 receptor)
CCCCCCCCCCCCCCCC(=O)N[C@@H](CCC(=O)NCCCC[C@H](NC(=O)[C@H](CCC(N)=O)NC(=O)[C@H](CCCCN)NC(=O)[C@H](CO)NC(=O)[C@H](CC(C)C)NC(=O)[C@H](CC(=O)O)NC(=O)[C@H](CO)NC(=O)[C@@H](NC(=O)[C@H](Cc1ccccc1)NC(=O)[C@@H](NC(=O)CNC(=O)[C@H](CCC(N)=O)NC(=O)[C@@H](CO)NC(=O)[C@@H](N)Cc1c[nH]cn1)[C@@H](C)O)[C@@H](C)O)C(=O)N[C@@H](CCC(=O)O)C(=O)N[C@@H](CO)C(=O)N[C@@H](CCCNC(=N)N)C(=O)N[C@@H](C)C(=O)N[C@@H](C)C(=O)N[C@@H](CCC(N)=O)C(=O)N[C@@H](CCC(=O)O)C(=O)N[C@@H](Cc1ccccc1)C(=O)N[C@H](C(=O)N[C@@H](CCC(=O)O)C(=O)N[C@@H](Cc1c[nH]c2ccccc12)C(=O)N[C@@H](CC(C)C)C(=O)N[C@@H](CCCCN)C(=O)N[C@@H](C)C(=O)NCC(=O)NCC(=O)N1CCC[C@H]1C(=O)N[C@@H](CO)C(=O)N[C@@H](CO)C(=O)NCC(=O)N[C@@H](C)C(=O)N1CCC[C@H]1C(=O)N1CCC[C@H]1C(=O)N1CCC[C@H]1C(=O)N[C@@H](CO)C(N)=O)[C@@H](C)CC)C(=O)O [compound 47],10.3 pM,2.2 pM
CCCCCCCCCCCCCCCC(=O)N[C@@H](CCC(=O)NCCCC[C@H](NC(=O)[C@H](CCC(N)=O)NC(=O)[C@H](CCCCN)NC(=O)[C@H](CO)NC(=O)[C@H](CC(C)C)NC(=O)[C@H](CC(=O)O)NC(=O)[C@H](CO)NC(=O)[C@@H](NC(=O)[C@H](Cc1ccccc1)NC(=O)[C@@H](NC(=O)CNC(=O)[C@H](CCC(N)=O)NC(=O)[C@@H](CO)NC(=O)[C@@H](N)Cc1c[nH]cn1)[C@@H](C)O)[C@@H](C)O)C(=O)N[C@@H](CCC(=O)O)C(=O)N[C@@H](CO)C(=O)N[C@@H](CCCNC(=N)N)C(=O)N[C@@H](C)C(=O)N[C@@H](C)C(=O)N[C@@H](CCC(N)=O)C(=O)N[C@@H](CC(C)C)C(=O)N[C@@H](Cc1ccccc1)C(=O)N[C@H](C(=O)N[C@@H](CCC(=O)O)C(=O)N[C@@H](Cc1c[nH]c2ccccc12)C(=O)N[C@@H](CC(C)C)C(=O)N[C@@H](CCCCN)C(=O)N[C@@H](C)C(=O)NCC(=O)NCC(=O)N1CCC[C@H]1C(=O)N[C@@H](CO)C(=O)N[C@@H](CO)C(=O)NCC(=O)N[C@@H](C)C(=O)N1CCC[C@H]1C(=O)N1CCC[C@H]1C(=O)N1CCC[C@H]1C(=O)N[C@@H](CO)C(N)=O)[C@@H](C)CC)C(=O)O [compound 48],53.6 pM,5.9 pM
CCCCCCCCCCCCCCCC(=O)N[C@@H](CCC(=O)N[C@@H](CCC(=O)NCCCC[C@H](NC(=O)[C@H](CCC(N)=O)NC(=O)[C@H](CCCCN)NC(=O)[C@H](CO)NC(=O)[C@H](CC(C)C)NC(=O)[C@H](CC(=O)O)NC(=O)[C@H](CO)NC(=O)[C@@H](NC(=O)[C@H](Cc1ccccc1)NC(=O)[C@@H](NC(=O)CNC(=O)[C@H](CCC(N)=O)NC(=O)[C@@H](CO)NC(=O)[C@@H](N)Cc1c[nH]cn1)[C@@H](C)O)[C@@H](C)O)C(=O)N[C@@H](CCC(=O)O)C(=O)N[C@@H](CO)C(=O)N[C@@H](CCCNC(=N)N)C(=O)N[C@@H](C)C(=O)N[C@@H](C)C(=O)N[C@@H](CCC(N)=O)C(=O)N[C@@H](CC(=O)O)C(=O)N[C@@H](Cc1ccccc1)C(=O)N[C@H](C(=O)N[C@@H](CCC(=O)O)C(=O)N[C@@H](Cc1c[nH]c2ccccc12)C(=O)N[C@@H](CC(C)C)C(=O)N[C@@H](CCCCN)C(=O)N[C@@H](C)C(=O)NCC(=O)NCC(=O)N1CCC[C@H]1C(=O)N[C@@H](CO)C(=O)N[C@@H](CO)C(=O)NCC(=O)N[C@@H](C)C(=O)N1CCC[C@H]1C(=O)N1CCC[C@H]1C(=O)N1CCC[C@H]1C(=O)N[C@@H](CO)C(N)=O)[C@@H](C)CC)C(=O)O)C(=O)O [compound 49],2.9 pM,1.1 pM

# — US20140100156A1 (SANOFI, priority 2012, published 2014)
